Experimental data from patent US20020142016A1, “Stable skin care product containing a retinoid and a retinoid booster system in a dual compartment package” (priority 2000, published 2002).

target: T1, LRAT (Bos taurus, UniProt Q9BGL2); assay: Assay for LRAT activity in RPE microsomes; format: biochemical, bovine; conditions: 100 μm compound
T1 construct: followed by approximately 15 pg of RPE microsomal protein; tissue W. L. Lawson Co., Lincoln, Nebr; host or cells: bovine retinal pigment epithelium microsomes
T1 sequence (Q9BGL2 1-230): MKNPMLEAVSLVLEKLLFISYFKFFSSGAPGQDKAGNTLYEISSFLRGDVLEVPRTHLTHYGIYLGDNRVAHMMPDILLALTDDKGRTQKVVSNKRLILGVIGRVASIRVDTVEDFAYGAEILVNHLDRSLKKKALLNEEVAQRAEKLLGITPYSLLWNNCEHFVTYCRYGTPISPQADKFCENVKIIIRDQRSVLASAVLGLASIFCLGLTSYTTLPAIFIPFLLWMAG

Which inhibition at 100 µM does the source give for CC(C)=CCCC(C)CCO (stereo not drawn) [Citronellol] here?
The inhibition at 100 µM was 0%.

CCCCCCCCCCCCCCCC(=O)NCCO [Palmitamide-MEA] was tested. Which inhibition at 100 µM did it give?
The inhibition at 100 µM was 33%.

With C[C@H]1[C@H](C)CC[C@]2(C(=O)O)CC[C@]3(C)C(=CC[C@@H]4[C@@]5(C)CC[C@H](O)C(C)(C)[C@@H]5CC[C@]43C)[C@H]12 [Urosolic Acid] as the compound, how does the inhibition at 100 µM read?
The inhibition at 100 µM was 28%.
